Only some compounds are listed: those with a hit (about 13% of all), similar ones and a draw of the others.
Sfp inh – blocks B. subtilis Sfp PPTase activity | Q9F4F7 | Biochemical Sfp PPTase activity, qHTS | Potency, µM, actives largely listed as inhibitors | hit rate 3.5% among 310,000 | AID 1490;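 note: the enzyme is Sfp with the accession as filed and its product quenches rhodamine fluorescence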
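With Hepes-Na pH 7.6 buffer containing 10 mM MgCl2, Sfp (15 nM) modified BHQ-2-YbbR (12.5 uM) using rhodamine-CoA (5 uM). Two reads 30 minutes apart at 525/598 nm yielded each well's rate.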
KDM4E inh – JMJD2E (human) inhibition | B2RXH2 | Potency, µM (doses to about 57.1 µM), hits mostly inhibitors | hit rate 1.6% among 230,000 | JMJD2E catalytic domain, FDH-coupled NADH fluorescence (FDH is formaldehyde dehydrogenase); note: nearly all actives have a fitted effect of over 50% in size
G9a inh – blocks human histone lysine methyltransferase G9a. G9a H3K9 monomethylation, AlphaScreen, 2 h. hit rate 8.8% among 350,000. Potency, µM (top dose mostly 102 µM), actives largely listed as inhibitors. AID 504332; note: nearly all actives have a fitted effect of over 75% in size
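Quantitative HTS format: methyltransferase activity on a biotin-tagged H3K9 peptide is measured by AlphaScreen, using a rabbit anti-monomethyl-H3K9 antibody with streptavidin donor and anti-IgG acceptor beads. Final levels are 20 nM enzyme, 500 nM peptide, 20 uM SAM; 2 h RT.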
miR-21 reporter – raises the signal of a miR-21 reporter | HeLa miR-21 FLuc reporter, luciferase, 48 h | Potency, µM (doses to about 38.3 µM) | 340,000 tested, under 10 active | AID 2288; active = well fitted rising curve with a large enough effect; inconclusive = small, poorly fitted or top-dose-only effect; inactive = no such curve, though single readings can be large or run the other way;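 also: miR-21 action dims this reporter so a rising signal means less miR-21 action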
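HeLa cells stably expressing CMV-driven firefly luciferase with a downstream miR-21 binding sequence, endogenously expressing miR-21, were treated with titrations (up to about 40uM final) for 48 hours at 37 degree Celsius. Luciferase luminescence was read after lysis.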
ALDH1A1 block – ALDH1A1 (human) enzyme inhibition; AID 1030; Purified ALDH1A1, NADH fluorescence, propionaldehyde substrate; P00352; hit rate 7.3% among 220,000; Potency, µM (series often up to 75.3 µM), usual class: inhibitors; active = well fitted inhibition curve with a large enough effect, not every such curve was filed as active; inconclusive = small, poorly fitted or top-dose-only effect, or another doubt; inactive = no such curve, though single readings can be large or run the other way
LMNA splice mod – modulators of lamin A splicing; AID 1487; hit rate 0.01% among 200,000; HeLa LMNA splicing GFP/RFP minigene ratio, 48 h; Potency, µM (doses to about 46.1 µM), most hits filed as inhibitors; active = well fitted inhibition curve with a large enough effect in the signal ratio, with a control signal flat, not every such curve was filed as active; inconclusive = small, poorly fitted or top-dose-only effect, or effect the other way, or a change in a side signal; the % refers to the signal ratio
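S3 HeLa stable clones carrying a lamin A-EGFP splicing minigene plus DsRed2 were seeded at 600 cells/well in Opti-MEM with 2% FBS, pin-dosed and incubated 48 h at 37°C. Acumen cytometry (488 nm) gave the GFP/RFP total-intensity ratio.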
Each line names hits and unclear results; the compound was inactive in the other large screens. Unless noted, calls come from the whole dose curve; as a rule, active = well fitted curve in the direction sought with a large enough effect; inconclusive = small, poorly fitted or top-dose-only effect, or another doubt; inactive = no such curve, though single readings can be large; an effect the other way counts as inactive or inconclusive.

Cc1cccc(CNC(=O)C2CCC(CNS(=O)(=O)c3ccc4c(c3)CCCC(=O)N4)CC2)c1 (stereo not given)	LMNA splice mod inconclusive (no result: Sfp inh, KDM4E inh, ALDH1A1 block)
Cc1sc(C(C2C(=O)CC(C)(C)CC2=O)C2C(=O)CC(C)(C)CC2=O)cc1[N+](=O)[O-]	Sfp inh 6.31µM, KDM4E inh inconclusive, G9a inh 7.94µM, ALDH1A1 block 12.6µM (no result: LMNA splice mod)
CCNC(=O)COc1ccc(/C=C2\COc3ccccc3C2=O)cc1OC	G9a inh 39.8µM, miR-21 reporter inconclusive (no result: KDM4E inh, ALDH1A1 block, LMNA splice mod)
CCOc1cc(/C=C2\COc3ccccc3C2=O)ccc1OCC(=O)N(C)C	miR-21 reporter inconclusive (no result: KDM4E inh, ALDH1A1 block, LMNA splice mod)
Cc1ccc2[nH]c3c(c2c1)CN(C(=O)CN(C)CC1OCCO1)CC3	ALDH1A1 block inconclusive
Cc1ccc2[nH]c3c(c2c1)CN(C(=O)CN1CCCCC1)CC3	G9a inh 50.1µM (no result: ALDH1A1 block, LMNA splice mod)
O=C(CN1CCN(Cc2ccc3c(c2)OCO3)CC1)N1CCc2[nH]c3ccc(F)cc3c2C1	G9a inh inconclusive, ALDH1A1 block inconclusive
Cc1ccc2[nH]c3c(c2c1)CN(C(=O)CN1CCCc2ccccc21)CC3	KDM4E inh inconclusive, G9a inh 3.16µM, ALDH1A1 block 2.82µM
Cc1ccc2[nH]c3c(c2c1)CN(C(=O)CN1CCN(c2ccccc2F)CC1)CC3	G9a inh 31.6µM, ALDH1A1 block 8.91µM
CC1CCCCN1CCn1c(=S)[nH]c2ncccc2c1=O (stereo not given)	G9a inh inconclusive
CC(C)OCCCn1c(=S)[nH]c2ncccc2c1=O	G9a inh 50.1µM, ALDH1A1 block inconclusive
CCN(CCCn1c(=S)[nH]c2ncccc2c1=O)c1ccccc1	none
CCCCN(C)CCn1c(=S)[nH]c2ncccc2c1=O	G9a inh 50.1µM
CCN(CC)CCCn1c(=S)[nH]c2ncccc2c1=O	Sfp inh inconclusive, KDM4E inh inconclusive, G9a inh 50.1µM, ALDH1A1 block inconclusive
CCOc1ccc(CCNC(=O)CCc2nnc3ccc(N4CCCCC4)nn23)cc1OCC	none (no result: KDM4E inh, ALDH1A1 block, LMNA splice mod)
O=C(NCCO)C(=O)NCC(c1ccc2c(c1)OCO2)N1CCOCC1 (stereo not given)	none (no result: Sfp inh, KDM4E inh, ALDH1A1 block)
Cc1ccc(Cl)cc1N1CCN(C(=O)CSc2cc(=O)n(C)c3ccccc23)CC1	none (no result: Sfp inh, KDM4E inh, ALDH1A1 block, LMNA splice mod)
Cc1ccc(Cl)cc1N1CCN(C(=O)CSc2ccsc2[N+](=O)[O-])CC1	G9a inh 50.1µM, ALDH1A1 block inconclusive
O=C(CSc1ccc(Cl)cc1)N1CCN(c2ccc([N+](=O)[O-])cc2Cl)CC1	ALDH1A1 block 20µM, LMNA splice mod inconclusive
NC(=O)C1CCN(c2ccc([N+](=O)[O-])cc2Cl)CC1	ALDH1A1 block 20µM
N#C/C(=C\c1ccc2c(c1)OCO2)C(N)=S	Sfp inh inconclusive (no result: G9a inh, LMNA splice mod)
N#C/C(=C/c1ccco1)C(N)=S	Sfp inh 10µM, KDM4E inh inconclusive (no result: G9a inh, ALDH1A1 block, LMNA splice mod)
NNC(=O)c1cc2sccc2s1	miR-21 reporter inconclusive, ALDH1A1 block 2.51µM (no result: LMNA splice mod)
CC(=O)NNC(=O)c1cc2sccc2s1	none (no result: G9a inh, LMNA splice mod)
O=C(OCc1ccc([N+](=O)[O-])cc1)c1cnc(Cl)c(Cl)c1	none (no result: KDM4E inh, ALDH1A1 block, LMNA splice mod)
Cc1ccc(/C=C/C(=O)NC2CCCCCCC2)o1	G9a inh 1.78µM, miR-21 reporter inconclusive, ALDH1A1 block 3.55µM
Cc1ccc(/C=N/NC(=O)NC2CCCCC2)o1	G9a inh inconclusive, ALDH1A1 block 3.55µM
Cc1ccc(Cn2ccn(Cc3ccc(C)cc3)c(=O)c2=O)cc1	none (no result: Sfp inh, KDM4E inh, ALDH1A1 block)
CCOc1cc(CNc2ccc3c(c2)CCC3)ccc1O	G9a inh 8.91µM, ALDH1A1 block inconclusive
COc1ccccc1NC(=O)Nc1ccccc1SC	none
CCOc1cc(CNc2ccccc2SC)ccc1O	Sfp inh 56.2µM, KDM4E inh inconclusive, G9a inh inconclusive, ALDH1A1 block inconclusive
COc1cc(CNc2ccccc2SC)ccc1O	Sfp inh 79.4µM, KDM4E inh inconclusive, G9a inh inconclusive, ALDH1A1 block inconclusive
C=CCc1c(C)[nH]c2c(OC)cccc2c1=S	Sfp inh 12.6µM, KDM4E inh inconclusive, G9a inh 3.98µM, ALDH1A1 block inconclusive, LMNA splice mod inconclusive
O/N=C/c1ccc2cccc(OCc3ccccc3)c2n1	G9a inh 20µM (no result: KDM4E inh, ALDH1A1 block, LMNA splice mod)
COc1ccc(OCc2nnc(SCC(=O)N(C)Cc3ccccc3)n2N)cc1	Sfp inh 25.1µM, G9a inh 7.08µM, ALDH1A1 block 8.91µM
COc1ccc(C)cc1S(=O)(=O)NCCN1CCOCC1	none (no result: KDM4E inh, ALDH1A1 block, LMNA splice mod)

Source: PubChem BioAssay (National Center for Advancing Translational Sciences (NCATS))
